Experimental data: ChEMBL document CHEMBL3853302, “Anti-inflammatory and Quinone Reductase Inducing Compounds from Fermented Noni (Morinda citrifolia) Juice Exudates” (J Nat Prod, 2016)

The chains behind the UniProt entries cited, without tags or fusion partners.
UniProt P15559, whole entry: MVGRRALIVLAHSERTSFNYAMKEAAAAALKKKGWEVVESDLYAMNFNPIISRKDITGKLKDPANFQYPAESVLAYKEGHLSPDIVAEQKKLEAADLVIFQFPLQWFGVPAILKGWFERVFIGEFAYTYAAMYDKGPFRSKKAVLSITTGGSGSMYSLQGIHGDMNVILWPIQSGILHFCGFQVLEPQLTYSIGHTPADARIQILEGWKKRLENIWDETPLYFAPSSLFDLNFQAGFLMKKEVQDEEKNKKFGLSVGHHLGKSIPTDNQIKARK

Biological target: NAD(P)H dehydrogenase [quinone] 1 (Homo sapiens) (UniProt P15559)
Conditions: Hepa-1c1c7

- CD: 0.01 µM
Structure (SMILES): O=c1cc(-c2ccc(Br)cc2)oc2ccccc12
